## Measured affinities in a library of Ab-14 light chain variants

Source: Li et al. 2023 (doi:10.1038/s41467-023-39022-2), MIT Lincoln Laboratory and A-Alpha Bio; data file from the FLAb repository.

Antigen: PDVDLGDISGINAS, a 14-residue peptide of the SARS-CoV-2 spike HR2 region.

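The starting antibody came from a phage panning campaign against this peptide. Designed CDR sequences, proposed from the first random library and measured here. Their group label is 14L_GP_Gen (GP: Gaussian process model; Gen: genetic algorithm; a sequence that several methods proposed may carry one label only). The scFvs were displayed on barcoded MATa yeast, the peptide on MATalpha yeast. Binding brings cells together so that they mate, and sequencing counts the barcode pairs among the diploids. A regression on co-assayed BCL2-family reference pairs converts the normalised counts of each replicate to an apparent Kd. There are six technical replicates.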

Parent scFv Ab-14: VH joined to VL by a (GGGGS)3 linker. Changes lie in the light chain CDRs alone.
VH: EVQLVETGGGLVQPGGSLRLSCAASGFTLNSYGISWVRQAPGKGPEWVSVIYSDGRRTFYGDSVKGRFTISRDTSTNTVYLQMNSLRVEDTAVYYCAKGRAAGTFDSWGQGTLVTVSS
VL: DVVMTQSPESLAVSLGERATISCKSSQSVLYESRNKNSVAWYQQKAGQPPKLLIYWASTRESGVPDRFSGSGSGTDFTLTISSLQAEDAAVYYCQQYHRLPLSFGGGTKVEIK

The parent's light chain CDRs are KSSQSVLYESRNKNSVA, WASTRES, QQYHRLPLS; each variant's own CDRs replace them letter for letter.
Values are log10 of the apparent Kd in nM; lower means stronger binding.
Averages over replicates are reported, and they cover detected replicates only.

{"CDR-L1": "KLSQSEGYESRNKNSVA", "CDR-L2": "NASQREE", "CDR-L3": "QQYHRLPLS", "log10 Kd, replicates": "-0.25 / -0.55 / -0.37 / -0.66 / -0.51 / -0.18", "mean, log10 nM": "-0.42", "signal with controls": "1/18 (2.65)"}
{"CDR-L1": "HLSQSVLYESRNKNSVA", "CDR-L2": "NASKRES", "CDR-L3": "QQYHRLPLS", "log10 Kd, replicates": "-0.27 / -0.35 / -0.32 / -0.49 / -0.44 / -0.28", "mean, log10 nM": "-0.36", "signal with controls": "0/18"}
{"CDR-L1": "KFSQSWLYESRNKNSVA", "CDR-L2": "EASTRES", "CDR-L3": "QQYHRLPLS", "log10 Kd, replicates": "-0.14 / -0.06 / 0.00 / -0.46 / -0.19 / -0.10", "mean, log10 nM": "-0.16", "signal with controls": "1/18 (2.24)"}
{"CDR-L1": "KMQQSWLYESRNKNSVA", "CDR-L2": "NASQRES", "CDR-L3": "QQYHRLPLS", "log10 Kd, replicates": "-0.84 / -0.82 / 0.08 / -0.83 / -0.82 / -0.57", "mean, log10 nM": "-0.63", "signal with controls": "0/18"}
{"CDR-L1": "KLSQSVLYESRNKMSVA", "CDR-L2": "EASTRES", "CDR-L3": "QQYHRLPLS", "log10 Kd, replicates": "0.09 / -0.12 / -0.19 / -0.09 / -0.02 / -0.03", "mean, log10 nM": "-0.06", "signal with controls": "0/18"}
{"CDR-L1": "KLSQSVLYESRNKNSVA", "CDR-L2": "EASTREE", "CDR-L3": "QQYHRLPLM", "log10 Kd, replicates": "0.09 / -0.58 / -0.62 / -0.37 / -0.44 / -0.33", "mean, log10 nM": "-0.38", "signal with controls": "0/18"}
{"CDR-L1": "KLSQSVLYESRNWNNVA", "CDR-L2": "NASTRES", "CDR-L3": "QQYHRLPLS", "log10 Kd, replicates": "-0.42 / -0.49 / -0.54 / -0.59 / -0.53 / -0.42", "mean, log10 nM": "-0.50", "signal with controls": "1/18 (2.32)"}
{"CDR-L1": "KLSQSELYESRNKNSVA", "CDR-L2": "EASTRLS", "CDR-L3": "QQYHRLPLS", "log10 Kd, replicates": "0.35 / 0.11 / -0.12 / 0.14 / 0.19 / 0.15", "mean, log10 nM": "0.14", "signal with controls": "0/18"}
{"CDR-L1": "KFSQSFLYESRNKNSVA", "CDR-L2": "DASQRES", "CDR-L3": "QQYHRLPLS", "log10 Kd, replicates": "-0.23 / -0.32 / -0.39 / -0.45 / -0.43 / -0.36", "mean, log10 nM": "-0.36", "signal with controls": "2/18 (3.24)"}
{"CDR-L1": "KFEQSEPYESRNKNSVA", "CDR-L2": "NASTRES", "CDR-L3": "QQYHRLPLS", "log10 Kd, replicates": "-0.18 / -0.37 / -0.45 / -0.40 / -0.49 / -0.29", "mean, log10 nM": "-0.36", "signal with controls": "1/18 (3.22)"}
{"CDR-L1": "KLSQSELYESRNKNSVA", "CDR-L2": "GASTRCS", "CDR-L3": "QQYHRLPLS", "log10 Kd, replicates": "0.59 / 0.51 / 0.27 / 0.16 / 0.10 / 0.00", "mean, log10 nM": "0.27", "signal with controls": "0/18"}
{"CDR-L1": "KVSTSVLYESRNKNSVA", "CDR-L2": "DASTRES", "CDR-L3": "QQYHRLPLS", "log10 Kd, replicates": "-0.16 / -0.42 / -0.17 / -0.41 / -0.47 / -0.36", "mean, log10 nM": "-0.33", "signal with controls": "0/18"}
{"CDR-L1": "KVSQSVLYESRLKNSVA", "CDR-L2": "DASTRES", "CDR-L3": "QQYHRLPLS", "log10 Kd, replicates": "0.03 / -0.15 / -0.16 / -0.08 / -0.23 / 0.13", "mean, log10 nM": "-0.08", "signal with controls": "1/18 (2.34)"}
{"CDR-L1": "KLSQSYLYEERNKNSVA", "CDR-L2": "NASQRES", "CDR-L3": "QQYHRLPLS", "log10 Kd, replicates": "-0.34 / -0.30 / -0.56 / -0.52 / -0.61 / 0.05", "mean, log10 nM": "-0.38", "signal with controls": "2/18 (2.64)"}
{"CDR-L1": "KLPQSWLYESRNKNSVA", "CDR-L2": "NASERES", "CDR-L3": "QQYHRLPLS", "log10 Kd, replicates": "-0.16 / -0.38 / -0.48 / -0.41 / -0.46 / -0.26", "mean, log10 nM": "-0.36", "signal with controls": "0/18"}
{"CDR-L1": "KVSQSQPYESRNKNSVA", "CDR-L2": "NASTRES", "CDR-L3": "QQYHRLPLS", "log10 Kd, replicates": "0.26 / 0.15 / 0.10 / 0.00 / 0.16 / 0.24", "mean, log10 nM": "0.15", "signal with controls": "0/18"}
{"CDR-L1": "HLSQSVLYESRNKNSVA", "CDR-L2": "NASQRMS", "CDR-L3": "QQYHRLPLS", "log10 Kd, replicates": "0.30 / 0.12 / 0.39 / 0.19 / 0.00 / 0.49", "mean, log10 nM": "0.25", "signal with controls": "1/18 (2.61)"}
{"CDR-L1": "KLSQSVPYEDRNKNSVA", "CDR-L2": "NASTRES", "CDR-L3": "QQYHRLPLS", "log10 Kd, replicates": "0.20 / 0.01 / -0.23 / -0.15 / -0.23 / 0.27", "mean, log10 nM": "-0.02", "signal with controls": "0/18"}
{"CDR-L1": "KVSQSVLYEQRNKNAVA", "CDR-L2": "EASTRES", "CDR-L3": "QQYHRLPLS", "log10 Kd, replicates": "0.03 / 0.10 / -0.41 / -0.13 / 0.55 / 0.15", "mean, log10 nM": "0.05", "signal with controls": "0/18"}
{"CDR-L1": "KLSQSWLYESRNKNSVA", "CDR-L2": "NASTREQ", "CDR-L3": "QDYHRLPLS", "log10 Kd, replicates": "0.41 / 0.25 / 0.39 / 0.34 / 0.22 / 0.42", "mean, log10 nM": "0.34", "signal with controls": "2/18 (2.97)"}
{"CDR-L1": "KSSQSVPYEDRNKNSVA", "CDR-L2": "NASTRES", "CDR-L3": "QQYHRLPLS", "log10 Kd, replicates": "-0.14 / -0.40 / -0.54 / -0.25 / -0.38 / -0.29", "mean, log10 nM": "-0.33", "signal with controls": "0/18"}
{"CDR-L1": "KVPQSHLYESRNKNSVA", "CDR-L2": "QASTRES", "CDR-L3": "QQYHRLPLS", "log10 Kd, replicates": "0.60 / 0.70 / 0.36 / 0.42 / 0.86 / 0.27", "mean, log10 nM": "0.53", "signal with controls": "0/18"}
{"CDR-L1": "KLSQSVLYESRNKNSVA", "CDR-L2": "EASYRES", "CDR-L3": "QQYHRLPLS", "log10 Kd, replicates": "-0.18 / -0.33 / -0.22 / -0.52 / -0.46 / -0.23", "mean, log10 nM": "-0.32", "signal with controls": "1/18 (2.67)"}
{"CDR-L1": "HLEQSVLYESRNKNSVA", "CDR-L2": "NASTRES", "CDR-L3": "QQYHRLPLS", "log10 Kd, replicates": "-0.18 / -0.27 / -0.37 / -0.51 / -0.65 / -0.12", "mean, log10 nM": "-0.35", "signal with controls": "0/18"}
{"CDR-L1": "KFPQSYLYESRNKNSVA", "CDR-L2": "NASTRES", "CDR-L3": "QQYHRLPLS", "log10 Kd, replicates": "0.15 / 0.00 / 0.02 / -0.03 / -0.25 / 0.19", "mean, log10 nM": "0.01", "signal with controls": "4/18 (2.63)"}
{"CDR-L1": "KLEQSVWYESRNKNSVA", "CDR-L2": "NASTRES", "CDR-L3": "QQYHRLPLS", "log10 Kd, replicates": "0.19 / 0.03 / 0.28 / 0.03 / 0.41 / 0.44", "mean, log10 nM": "0.23", "signal with controls": "1/18 (2.98)"}
{"CDR-L1": "KFPQSVLYESRNKNSVA", "CDR-L2": "GASTRES", "CDR-L3": "QQYHRLPLS", "log10 Kd, replicates": "0.46 / 0.69 / 0.40 / 0.63 / 0.32 / 0.75", "mean, log10 nM": "0.54", "signal with controls": "0/18"}
{"CDR-L1": "KLRQSQLYESRNKNSVA", "CDR-L2": "NASTRES", "CDR-L3": "QQYHRLPLS", "log10 Kd, replicates": "-0.37 / -0.39 / -0.52 / -0.64 / -0.41 / -0.28", "mean, log10 nM": "-0.43", "signal with controls": "0/18"}
{"CDR-L1": "KLQQSHLYESRNKNSVA", "CDR-L2": "HASTRES", "CDR-L3": "QQYHRLPLS", "log10 Kd, replicates": "0.36 / 0.53 / 0.47 / 0.12 / 0.18 / 0.22", "mean, log10 nM": "0.31", "signal with controls": "0/18"}
{"CDR-L1": "KLSQSVLYESRNVNSVA", "CDR-L2": "NASTRES", "CDR-L3": "QQYHRLPLS", "log10 Kd, replicates": "-0.08 / -0.08 / -0.01 / -0.57 / -0.39 / -0.03", "mean, log10 nM": "-0.19", "signal with controls": "1/18 (1.12)"}
{"CDR-L1": "KLSMSMLYESRNKNSVA", "CDR-L2": "NASQRES", "CDR-L3": "QQYHRLPLS", "log10 Kd, replicates": "0.23 / 0.07 / -0.04 / 0.06 / -0.05 / 0.19", "mean, log10 nM": "0.08", "signal with controls": "1/18 (2.17)"}
{"CDR-L1": "KLSESVLYESRNKNSVA", "CDR-L2": "EASTREV", "CDR-L3": "QQYHRLPLS", "log10 Kd, replicates": "0.01 / -0.23 / -0.08 / -0.38 / 0.00 / 0.04", "mean, log10 nM": "-0.11", "signal with controls": "1/18 (2.25)"}

For reference, 4 entries of the list once more:

{"CDR-L1": "KLSQSEGYESRNKNSVA", "CDR-L2": "NASQREE", "CDR-L3": "QQYHRLPLS", "log10 Kd, replicates": "-0.25 / -0.55 / -0.37 / -0.66 / -0.51 / -0.18", "mean, log10 nM": "-0.42", "signal with controls": "1/18 (2.65)"}
{"CDR-L1": "KVSQSQPYESRNKNSVA", "CDR-L2": "NASTRES", "CDR-L3": "QQYHRLPLS", "log10 Kd, replicates": "0.26 / 0.15 / 0.10 / 0.00 / 0.16 / 0.24", "mean, log10 nM": "0.15", "signal with controls": "0/18"}
{"CDR-L1": "KLQQSHLYESRNKNSVA", "CDR-L2": "HASTRES", "CDR-L3": "QQYHRLPLS", "log10 Kd, replicates": "0.36 / 0.53 / 0.47 / 0.12 / 0.18 / 0.22", "mean, log10 nM": "0.31", "signal with controls": "0/18"}
{"CDR-L1": "KLSQSELYESRNKNSVA", "CDR-L2": "GASTRCS", "CDR-L3": "QQYHRLPLS", "log10 Kd, replicates": "0.59 / 0.51 / 0.27 / 0.16 / 0.10 / 0.00", "mean, log10 nM": "0.27", "signal with controls": "0/18"}

The parent sequence was in this pool as ten entries: three were never detected, three once, and four in most replicates, with averages from 0.34 to 2.37.
Values of this round are not directly comparable with the first-round values of the same sequences.
The authors averaged sequences with at least three values out of six and counted those with two or fewer as poor binders.
Background: pairings of all light chain designs with three empty control strains gave a value in 4% of cases (median 2.64, 5th percentile 1.59). Values in that range, when seen in few replicates, are hard to tell from nonspecific mating. Also given: how often the same scFv was detected with the empty control strains, with their mean in brackets.